We go through one molecule from patent US20220340547A1, “INDOLE DERIVATIVE-CONTAINING INHIBITOR, PREPARATION METHOD THEREFOR AND APPLICATION THEREOF” (Shanghi Hansoh Biosoh Biomedical Co., Ltd., priority 2019, published 2022).

The chains behind the UniProt entries cited, without tags or fusion partners. Residues count along the entry.
UniProt P00533, 25-1210 limits assumed: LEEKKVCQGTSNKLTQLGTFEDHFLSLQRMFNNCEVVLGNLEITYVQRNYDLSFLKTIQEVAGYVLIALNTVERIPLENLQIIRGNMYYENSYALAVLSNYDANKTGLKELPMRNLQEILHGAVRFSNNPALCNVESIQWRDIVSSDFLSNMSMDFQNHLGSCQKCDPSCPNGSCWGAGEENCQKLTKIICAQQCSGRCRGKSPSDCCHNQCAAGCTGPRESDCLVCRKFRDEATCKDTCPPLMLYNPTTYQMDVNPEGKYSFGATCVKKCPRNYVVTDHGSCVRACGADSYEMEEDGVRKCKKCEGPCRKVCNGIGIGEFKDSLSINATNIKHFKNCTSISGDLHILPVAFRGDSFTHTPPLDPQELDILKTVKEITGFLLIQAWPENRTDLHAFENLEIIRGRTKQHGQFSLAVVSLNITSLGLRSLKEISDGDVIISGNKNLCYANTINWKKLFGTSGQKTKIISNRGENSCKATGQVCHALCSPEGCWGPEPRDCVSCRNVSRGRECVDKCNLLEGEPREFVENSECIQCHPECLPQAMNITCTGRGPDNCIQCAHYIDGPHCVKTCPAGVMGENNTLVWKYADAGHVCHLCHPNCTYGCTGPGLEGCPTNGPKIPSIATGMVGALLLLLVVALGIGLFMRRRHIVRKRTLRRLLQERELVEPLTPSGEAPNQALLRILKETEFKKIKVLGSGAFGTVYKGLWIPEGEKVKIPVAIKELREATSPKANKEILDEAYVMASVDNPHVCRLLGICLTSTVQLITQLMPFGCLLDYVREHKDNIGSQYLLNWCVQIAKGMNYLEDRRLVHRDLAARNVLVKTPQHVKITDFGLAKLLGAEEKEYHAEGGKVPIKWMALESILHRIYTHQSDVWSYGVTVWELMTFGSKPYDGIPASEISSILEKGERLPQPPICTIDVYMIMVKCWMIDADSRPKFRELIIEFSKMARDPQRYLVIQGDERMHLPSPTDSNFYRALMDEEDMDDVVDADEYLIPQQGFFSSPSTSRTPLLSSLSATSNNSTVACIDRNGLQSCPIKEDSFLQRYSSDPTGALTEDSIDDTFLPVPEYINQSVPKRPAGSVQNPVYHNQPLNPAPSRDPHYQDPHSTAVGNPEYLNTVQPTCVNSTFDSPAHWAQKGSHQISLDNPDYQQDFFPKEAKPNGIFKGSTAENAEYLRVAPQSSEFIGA

This assay addresses EGFR WT (Homo sapiens, UniProt P00533). Kind of assay: TR-FRET inhibition of kinase activity of wild type EGFR. The conditions noted are these: read-out: EGFR WT IC50. It counts as biochemical. (TR-FRET usually uses a lanthanide donor and a delayed reading to cut background.)

A word on the IC50: it is the concentration needed to halve the response being measured.

With `C=CC(=O)Nc1cc(Nc2ncc(C#N)c(-c3cn(C4CC4)c4ccccc34)n2)c(OC)nc1N(C)CCN(C)C`, the IC50 was 1320 nM.
